Among the data in patent US10011585B2, “Factor XIa inhibitors” (Merck Sharp & Dohme Corp., priority 2014, dated 2018) are IC50 values, retold here.

By UniProt entry, the sequences of proteins in these tests, tags left out. Residues count along the entry.
UniProt P03951, 388-625 limits assumed: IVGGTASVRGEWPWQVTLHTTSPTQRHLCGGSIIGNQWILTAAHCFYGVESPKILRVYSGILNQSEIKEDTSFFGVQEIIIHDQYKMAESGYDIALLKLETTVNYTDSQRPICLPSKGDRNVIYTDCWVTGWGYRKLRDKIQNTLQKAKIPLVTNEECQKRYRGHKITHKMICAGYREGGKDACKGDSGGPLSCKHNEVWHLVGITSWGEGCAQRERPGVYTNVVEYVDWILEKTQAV
UniProt P03951, 19-387 partner limits assumed: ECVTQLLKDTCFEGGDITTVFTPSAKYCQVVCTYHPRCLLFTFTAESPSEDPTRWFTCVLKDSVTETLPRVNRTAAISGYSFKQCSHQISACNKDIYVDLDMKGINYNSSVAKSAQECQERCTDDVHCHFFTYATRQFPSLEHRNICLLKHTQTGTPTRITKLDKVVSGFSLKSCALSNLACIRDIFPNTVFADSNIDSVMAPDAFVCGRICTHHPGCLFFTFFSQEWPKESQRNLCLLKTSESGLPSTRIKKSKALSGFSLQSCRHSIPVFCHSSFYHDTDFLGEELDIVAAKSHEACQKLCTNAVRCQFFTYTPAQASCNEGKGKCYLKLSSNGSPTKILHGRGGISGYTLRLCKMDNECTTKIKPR

In this assay the target is human Factor XIa (Homo sapiens, UniProt P03951). Nature of the assay: Factor XIa Assay. The note with it: read-out: F11a IC50, Examples 1-19 table. The method, then: The effectiveness of a compound of the present invention as an inhibitor of Coagulation Factor XIa can be determined using a relevant purified serine protease, and an appropriate synthetic substrate. The rate of hydrolysis of the chromogenic or fluorogenic substrate by the relevant serine protease was measured both in the absence and presence of compounds of the present invention. Assays were conducted at room temperature or at 37° C. […] A decrease in the rate of fluorescence change in the presence of inhibitor is indicative of enzyme inhibition. Such methods are known to one skilled in the art. […]
Factor XIa determinations were made in 50 mM HEPES buffer at pH 7.4 containing 150 mM NaCl, 5 mM CaCl2, and 0.1% PEG 8000 (polyethylene glycol; JT Baker or Fisher Scientific). Determinations were made using purified human Factor XIa at a final concentration of 40 pM (Sekisui Diagnostics) and the synthetic substrate, Z-Gly-Pro-Arg-AFC, TFA salt (Sigma #C0980) at a concentration of 100 μM.
Activity assays were performed by diluting a stock solution of substrate at least tenfold to a final concentration ≤0.1 Km into a solution containing enzyme or enzyme equilibrated with inhibitor. Times required to achieve equilibration between enzyme and inhibitor were determined in control experiments. Initial velocities of product formation in the absence (Vo) or presence of inhibitor (Vi) were measured. […]

By IC50 is commonly meant the concentration at which inhibition is half-maximal. Regarding `N#Cc1ccc(Cl)cc1-c1ccc([C@@H](Cc2ccccc2)c2nc3cc(C(=O)O)ccc3[nH]2)[n+]([O-])c1`, the half-inhibitory concentration (IC50) was determined as 25.4 nM.

As to `N#Cc1ccc(Cl)cc1-c1ccc([C@H](Cc2ccccc2)c2nc3cc(C(=O)O)ccc3[nH]2)[n+]([O-])c1`, the IC50 is 27.9 nM.
